Measured values from US5298499A, “S-2-(substituted ethylamino)ethyl phosphorothioates” (Research Triangle Institute, priority 1991, dated 1994).
Like-named read-outs stand apart in the source and are kept apart here.

What was measured:
[1] = test system: mice; assay: Toxicity (approximate LD50 / toxic deaths) in mice; details: for Approximate LD50: mice, intraperitoneal
[2] = test system: mice; assay: Radiation-protective evaluation in mice, 30-day survival after lethal irradiation
[3] = test system: mice; details: taken from T. R. Sweeney; cited from earlier work
[4] = 37.5 mg/kg i.p., 30 min before 9.5 GY
[5] = 75 mg/kg i.p., 30 min before 9.5 GY
[6] = 300 mg/kg i.p., 30 min before 10 GY
[7] = 600 mg/kg i.p., 30 min before 10 GY
[8] = 150 mg/kg i.p., 30 min before 9.5 GY

Structure (SMILES) | Approximate LD50 [1] [mg/kg] | protection at the highest dose tested [2] [%] | 30-Day Survival [2, 4] [%] | 30-Day Survival [2, 5] [%] | 30-Day Survival [2, 8] [%] | also measured
C/N=C(/N)CCNCCSP(=O)(O)O | > 150 |  |  |  |  | 
CNC(=S)CCNCCSP(=O)(O)O |  | 80 |  |  |  | 30-Day Survival ([2]; 37.5 mg/kg i.p., 30 min before 10 GY): 0%; 30-Day Survival ([2]; 75 mg/kg i.p., 30 min before 10 GY): 0%; 30-Day Survival ([2]; 150 mg/kg i.p., 30 min before 10 GY): 80%
O=P(O)(O)SCCNCCC1=NCCN1 | > 100 | 80 | 0 | 20 |  | 30-Day Survival ([2]; 100 mg/kg i.p., 30 min before 9.5 GY): 80%
NC(=O)CCNCCSP(=O)(O)O | > 600 |  |  |  |  | Approximate LD50 [3]: 130 mg/kg; toxic deaths ([1]; five mice, 600 mg/kg): no toxic deaths; 30-Day Survival [2, 6]: 10%; 30-Day Survival [2, 7]: 70%
N=C(N)CCNCCSP(=O)(O)O | > 150 |  | 10 | 70 | 100 | 
CNC(=N)CCNCCSP(=O)(O)O |  | 80 | 30 | 50 | 80 | 
NC(=S)CCNCCSP(=O)(O)O |  |  |  | 10 | 40 | 30-Day Survival ([2]; 300 mg/kg i.p., 30 min before 9.5 GY): 100%
C/N=C(/S)CCNCCSP(=O)(O)O | > 250 |  |  |  |  | 
N=C(S)CCNCCSP(=O)(O)O | > 300 |  |  |  |  | 
CNC(=O)CCNCCSP(=O)(O)O | > 600 | 80 |  |  |  | 30-Day Survival [2, 6]: 20%; 30-Day Survival [2, 7]: 80%
